Data reported in PubChem BioAssay AID686 (PCMD, 2007).
The list shows a part of the results, in another mix than the full data. Calls of active or inactive are those of the source.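 How the source made its calls: active means a full or partial loss of lipid-probe fluorescence in the fish gall bladder, intestine or both, judged by eye; inactive means no fluorescence loss, or compound toxic to the fish.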

Assay: inhibitors of larval lipid processing in zebrafish, primary screen, whole organism, PED6 fluorescence, gall bladder and intestine (AID 686);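 further: larvae 5 to 7 days old with five fish per well; signal comes from phospholipase A2 cleavage of quenched PED6 carried via bile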
Conditions: Zebrafish larvae PED6 lipid processing, fluorescence scoring; screened at 20 µM (by protocol)
Outline: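 System: live zebrafish larvae aged 5-7 days, whole organism; measure: graded gall bladder and intestinal fluorescence inhibition per well; incubation: overnight exposure; reagent: ingested quenched lipid PED6 at 100 nM; signal: By-eye fluorescence microscopy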

Compound | outcome
CCN(CC)CC(O)COC(=O)C(O)(c1ccccc1)C1CCCCC1 (stereo unspecified) | inactive
